Measurements reported in US5723103A, “Substituted benzamides and radioligand analogs and methods of use” (Vanderbilt University, priority 1994, dated 1998).
Where two headings read alike, the source gives them in different places.

Key:
5-HT-3 receptor [1] = molecular target: T1, 5-HT-3 receptor (Rattus norvegicus, UniProt P35563); conditions: for Ki: displacement of [^125 I]-4 binding, Table 1, rat entorhinal cortex homogenates, calculated from IC50 values, 0.64 nM [^125 I]4 (KD 1.5 nM)
T1 sequence (P35563 24-483): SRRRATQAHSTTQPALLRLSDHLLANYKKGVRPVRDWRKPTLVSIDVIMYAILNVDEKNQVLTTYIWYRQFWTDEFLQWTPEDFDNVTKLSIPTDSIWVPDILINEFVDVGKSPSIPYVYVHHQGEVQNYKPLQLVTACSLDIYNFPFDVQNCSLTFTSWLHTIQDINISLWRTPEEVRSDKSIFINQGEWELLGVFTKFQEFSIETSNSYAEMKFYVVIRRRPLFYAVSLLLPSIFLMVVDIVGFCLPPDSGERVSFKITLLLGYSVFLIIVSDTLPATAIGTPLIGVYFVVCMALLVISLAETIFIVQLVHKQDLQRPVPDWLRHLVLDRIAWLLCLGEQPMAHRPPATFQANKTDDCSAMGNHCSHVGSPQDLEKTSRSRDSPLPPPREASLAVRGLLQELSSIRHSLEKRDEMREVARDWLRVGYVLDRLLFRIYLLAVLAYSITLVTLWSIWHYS

5-HT-3 receptor [2] = molecular target: T1, 5-HT-3 receptor; experiment: Specific binding of [^125 I]-4 in various regions of the rat brain; parameters: iodozacopride in various regions of the rat brain; from tissue; host or cells: rat brain regions (amygdala, frontal cortex, entorhinal cortex, hippocampus, hypothalamus, striatum, thalamus, cerebellum); conditions: 1.5 nM ligand, defined by 10 uM bemesetron, assuming 10% protein concentration
Procedure: iodozacopride in various regions of the rat brain. Zacopride is
^(a) Specific binding of 1.5 nM [^125 I4 defined by 10 uM
bemesetron (MDL 72222), assuming 10% protein concentration.

5-HT-3 receptor [3] = molecular target: T1, 5-HT-3 receptor; parameters: iodozacopride in various regions of the rat brain; from tissue; host or cells: rat brain regions (amygdala, frontal cortex, entorhinal cortex, hippocampus, hypothalamus, striatum, thalamus, cerebellum); conditions: 0.6 nM ligand, defined by ondansetron, Laporte et al. 1992, cited from earlier work

O=C(N[C@@H]1CN2CCC1CC2)c1cc(I)ccc1OCCF [TDP 920] gave a Ki (5-HT-3 receptor [1]) of 18 nM.

For CCCOc1c(I)cc(Cl)cc1C(=O)N[C@@H]1CN2CCC1CC2 [TDP 1065], the Ki (5-HT-3 receptor [1]) was 0.8 nM.

With CCOc1c(OC)cc(I)cc1C(=O)N[C@@H]1CN2CCC1CC2 [TDP 1022] the Ki (5-HT-3 receptor [1]) was 2.7 nM.

C=CCOc1c(I)cc(Cl)cc1C(=O)N[C@@H]1CN2CCC1CC2 [TDP 1046] showed a Ki (5-HT-3 receptor [1]) of 0.63 nM.

CCOc1c(I)cc(Cl)cc1C(=O)N[C@@H]1CN2CCC1CC2 [TDP 1059] showed a Ki (5-HT-3 receptor [1]) of 0.4 nM.

Molecule COc1cc(I)cc(C(=O)N[C@@H]2CN3CCC2CC3)c1OC [TDP 960] has a Ki (5-HT-3 receptor [1]) of 1.5 nM.

In the case of COc1cc(Cl)cc(C(=O)N[C@@H]2CN3CCC2CC3)c1OCCF [TDP 994], the Ki (5-HT-3 receptor [1]) is reported as 0.31 nM.

For O=C(N[C@@H]1CN2CCC1CC2)c1cc(Cl)cc(I)c1OCCCF [TDP 1050], the Ki (5-HT-3 receptor [1]) was 1.25 nM.

Molecule COc1cc(Br)cc(C(=O)N[C@@H]2CN3CCC2CC3)c1OC [TDP 923] has a Ki (5-HT-3 receptor [1]) of 0.45 nM.

CCOc1cc(Br)cc(C(=O)N[C@@H]2CN3CCC2CC3)c1OC [TDP 924] gave a Ki (5-HT-3 receptor [1]) of 0.17 nM.

For O=C(N[C@@H]1CN2CCC1CC2)c1cc(I)ccc1OCCCF [TDP 921], the Ki (5-HT-3 receptor [1]) was 24 nM.

Molecule CC(C)Oc1ccc(I)cc1C(=O)N[C@@H]1CN2CCC1CC2 [TDP 919] has a Ki (5-HT-3 receptor [1]) of 5.6 nM.

In the case of COc1cc(Cl)cc(C(=O)N[C@@H]2CN3CCC2CC3)c1OC/C=C/I [TDP 984], the Ki (5-HT-3 receptor [1]) is reported as 0.29 nM.

Work on COc1ccc(I)cc1C(=O)N[C@@H]1CN2CCC1CC2 [TDP 915] yielded a Ki (5-HT-3 receptor [1]) of 18 nM.

CCCOc1ccc(I)cc1C(=O)N[C@@H]1CN2CCC1CC2 [TDP 9l7] showed a Ki (5-HT-3 receptor [1]) of 16 nM.

With C=CCOc1ccc(I)cc1C(=O)N[C@@H]1CN2CCC1CC2 [TDP 918] the Ki (5-HT-3 receptor [1]) was 10 nM.

Work on CC(C)Oc1c(I)cc(Cl)cc1C(=O)N[C@@H]1CN2CCC1CC2 [TDP 1062] yielded a Ki (5-HT-3 receptor [1]) of 0.72 nM.

Molecule CCOc1ccc(I)cc1C(=O)N[C@@H]1CN2CCC1CC2 [TDP 916] has a Ki (5-HT-3 receptor [1]) of 7.3 nM.

With COc1cc([125I])cc(C(=O)N[C@@H]2CN3CCC2CC3)c1OC [[^125 I]-4, (S)-N-[3-(1-azabicyclo[2.2.2]octyl)]-2,3-dimethoxy-5-[^125 I]iodobenzamide] the “Specific binding of [^125 I]-4” value (5-HT-3 receptor [2]; Amygdala) was 2.4 fmol/mprotein, the “Specific binding of [^125 I]-4” value (5-HT-3 receptor [2]; Cerebellum) was 0.3 fmol/mprotein and the “Specific binding of [^125 I]-4” value (5-HT-3 receptor [2]; Entorhinal cortex) was 2.4 fmol/mprotein. The “Specific binding of [^125 I]-4” value (5-HT-3 receptor [2]; Frontal cortex) was 2.1 fmol/mprotein, the “Specific binding of [^125 I]-4” value (5-HT-3 receptor [2]; Hippocampus) was 1.3 fmol/mprotein and the “Specific binding of [^125 I]-4” value (5-HT-3 receptor [2]; Hypothalamus) was 0.9 fmol/mprotein. For the same molecule, the “Specific binding of [^125 I]-4” value (5-HT-3 receptor [2]; Striatum) was 0.7 fmol/mprotein, the “Specific binding of [^125 I]-4” value (5-HT-3 receptor [2]; Thalamus) was 0.5 fmol/mprotein and the “Stereoselectivity of [^125 I]4” value (5-HT-3 receptor [1]; (S)-4 vs (R)-4) was 14.

In the case of COc1c(I)cc(Cl)cc1C(=O)N[C@@H]1CN2CCC1CC2 [TDP 1040], the Ki (5-HT-3 receptor [1]) is reported as 0.11 nM.

With O=C(N[C@@H]1CN2CCC1CC2)c1cc(Cl)cc(I)c1OCCF [TDP 1056] the Ki (5-HT-3 receptor [1]) was 0.52 nM.

With COc1ccc(F)cc1C(=O)N[C@@H]1CN2CCC1CC2 [TDP 1087] the Ki (5-HT-3 receptor [1]) was 5.2 nM.

COc1c(OCCF)cc(Cl)cc1C(=O)N[C@@H]1CN2CCC1CC2 [TDP 999] showed a Ki (5-HT-3 receptor [1]) of 0.2 nM.

Molecule C#CCOc1c(I)cc(Cl)cc1C(=O)N[C@@H]1CN2CCC1CC2 [TDP 1053] has a Ki (5-HT-3 receptor [1]) of 0.7 nM.

COc1ccc(Br)cc1C(=O)N[C@@H]1CN2CCC1CC2 [TDP 922] showed a Ki (5-HT-3 receptor [1]) of 7.2 nM.

For COc1cc(N)c([125I])cc1C(=O)NC1CN2CCC1CC2 (centres unmarked) [[^125 I]iodozacopride], the “Specific binding of [^125 I]iodozacopride” value (5-HT-3 receptor [3]; Amygdala) is listed as 4.4 fmol/mg protein, the “Specific binding of [^125 I]iodozacopride” value (5-HT-3 receptor [3]; Cerebellum) is listed as 0.5 fmol/mg protein and the “Specific binding of [^125 I]iodozacopride” value (5-HT-3 receptor [3]; Entorhinal cortex) is listed as 3.1 fmol/mg protein. For the same molecule, the “Specific binding of [^125 I]iodozacopride” value (5-HT-3 receptor [3]; Frontal cortex) was 2.4 fmol/mg protein, the “Specific binding of [^125 I]iodozacopride” value (5-HT-3 receptor [3]; Hippocampus) was 2.1 fmol/mg protein and the “Specific binding of [^125 I]iodozacopride” value (5-HT-3 receptor [3]; Hypothalamus) was 1.1 fmol/mg protein. The “Specific binding of [^125 I]iodozacopride” value (5-HT-3 receptor [3]; Striatum) was 1.0 fmol/mg protein.

COc1cc(I)cc(C(=O)N[C@H]2CN3CCC2CC3)c1OC [TDP 991, (R)-N-[3-1-Azabicyclo [2.2.2.]octyl]-5-iodo-2,3-dimethoxy-benzamide] showed a Ki (5-HT-3 receptor [1]) of 19 nM.
